# Source: PubChem BioAssay AID624354 (Sanford-Burnham Center for Chemical Genomics, 2012)
# Only a part is listed here, and it is no random draw. The source made the active and inactive calls.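 Rule for the calls: active = compounds causing at least 50% loss of cell viability in the single-dose screen, relative to plate controls; inactive = the rest.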
# Assay: TRAIL-exposed caspase-8 expressing cell killing – NB7+C8 cells, ATPlite luminescence, TRAIL sensitizer project, primary screen (AID 624354)
# Conditions: at 10 µM, hits give high values
row,Structure (SMILES),"inhibition (viability loss, TRAIL sensitization)"
1,Nc1ccc(CCCCOc2ccccc2)cc1,inactive: 25.4%
2,COc1ccc(N)c([N+](=O)[O-])c1[N+](=O)[O-],inactive: 20.5%
3,CN(C)C1(CNC(=O)c2ccc(Cl)c(S(N)(=O)=O)c2)CCCCC1,inactive: 13.7%
4,O=P(Nc1ccccn1)(c1ccc(Br)cc1)c1ccc(Br)cc1,inactive: 3.65%
5,O=P(Nc1nc2ccccc2s1)(c1ccccc1)c1ccccc1,inactive: -12.6%
6,C[C@H]1OP(=O)(Oc2ccccc2)[C@H](O)[C@H](O)[C@H]1N=[N+]=[N-] (stereo not given in full),inactive: 13.9%
7,O=[N+]([O-])c1ncn(CCn2cnc([N+](=O)[O-])n2)n1,inactive: -11.1%
8,CC(=O)NC(SC(=S)N(C)C)C(Cl)(Cl)Cl (stereo not given),inactive: 24.3%
9,O=[N+]([O-])c1ccc(O)c(/C=N/Nc2ccc([N+](=O)[O-])cc2[N+](=O)[O-])c1,active: 52.3%
10,O=[As](O)(c1ccccc1)c1ccc(O)cc1,inactive: -9.68%
11,Nc1ccc([As](=O)(O)c2ccc([N+](=O)[O-])cc2)cc1,inactive: -6.46%
12,C(Cc1nn[nH]n1)Cc1nn[nH]n1,inactive: -6.24%
13,O=C(OC1CN2CCC1CC2)c1cccc(Cl)c1 (stereo not given),inactive: 5.09%
14,O=P(Nc1nccs1)(c1ccccc1)c1ccccc1,inactive: -27%
15,CC(C)C(=O)NC(Sc1ccccc1)C(Cl)(Cl)Cl (stereo not given),inactive: 7.37%
16,c1nnnn1CCn1cnnn1,inactive: -0.022%
17,O=P1(Nc2nc3ccc(Cl)cc3s2)COc2ccccc2O1 (stereo not given),inactive: 1.41%
18,CCOc1ccc(C2=NCC(CBr)S2)cc1 (stereo not given),inactive: -8.12%
19,CCc1cc(O)c([N+](=O)[O-])c(C)c1[N+](=O)[O-],inactive: -6.97%
20,CC(C)(C)C(=O)NC(Sc1ccccc1)C(Cl)(Cl)Cl (stereo not given),inactive: 12.7%
21,N#C/C(=C\c1ccc(N(CCBr)CCBr)cc1)C(N)=O,inactive: 7.2%
22,CC(=O)c1ccc(N2CC2c2ccncc2)cc1 (stereo not given),inactive: -5.78%

row,Structure (SMILES),"inhibition (viability loss, TRAIL sensitization)"
1,COC(=O)C1(C)COP(=O)(NCc2ccccc2)OC1 (stereo not given),inactive: -12.7%
2,Cc1ccccc1CN(C)C(=O)COC(=O)C(O)(c1ccccc1)c1ccccc1,inactive: -9.27%
3,C[C@@H]1C=CCP(=O)(Oc2ccccc2)O1 (stereo not given in full),inactive: -9.16%
4,C[C@H]1OP(=O)(Oc2ccccc2)C[C@@H]2O[C@@H]21 (stereo not given in full),inactive: -18%
5,CC(=O)Nc1ccc([As](=O)(O)O)c(O)c1,inactive: -1.35%
6,CC(=O)Nc1ccc(Oc2c([N+](=O)[O-])cc([N+](=O)[O-])cc2[N+](=O)[O-])cc1,inactive: -1.15%
7,O=C(NC1CCS(=O)(=O)C1)NP(=S)(Oc1ccccc1)Oc1ccccc1 (stereo not given),inactive: -8.08%
8,CCNC(=S)/N=C(\N)N[N+](=O)[O-],inactive: 3.45%
9,c1ccc(-c2nn[nH]n2)c(-c2nn[nH]n2)c1,inactive: 24.3%
10,Cc1ccc(NP(=O)(Oc2cccc(C)c2)Oc2cccc(C)c2)nc1,inactive: -7.23%
11,O=P1(N(CCCl)CCCl)OCCC2CCCCN21 (stereo not given),inactive: 5.52%
12,COC(=O)c1cc2c(s1)N=C(c1ccccc1)N(C)P2(=O)N1CCOCC1 (stereo not given),inactive: 7.05%
13,Cc1ccc(OP(=O)(Nc2ccccn2)Oc2ccc(C)cc2)cc1,inactive: 1.64%
14,CC(=O)NC(SC(=S)N(CC(C)C)CC(C)C)C(Cl)(Cl)Cl (stereo not given),inactive: 12.5%
15,O=C(OC1CN2CCC1CC2)c1ccccc1 (stereo not given),inactive: -9.88%
16,CCC(=O)N1C2C3N(C(=O)CC)C1C1N(C(=O)CC)C(C(N1C(=O)CC)N3C(=O)CC)N2C(=O)CC,inactive: 11%
17,Cc1ccccc1OP(=O)(Nc1ccccn1)Oc1ccccc1C,inactive: 3.1%
18,CC(NC(=O)COC(=O)C(O)(c1ccccc1)c1ccccc1)c1ccccc1 (stereo not given),inactive: 8.22%
19,CN(C)C(=O)Oc1noc2ccccc12,inactive: -7.06%
20,O=c1c2cc([N+](=O)[O-])ccc2[nH]c2c([N+](=O)[O-])cc([N+](=O)[O-])cc12,inactive: 10.2%
21,O=C(O)c1ccccc1[As](=O)(O)O,inactive: -10.7%
22,CC(=O)Nc1ccc([As](=O)(O)O)cc1,inactive: -3.77%

row,Structure (SMILES),"inhibition (viability loss, TRAIL sensitization)"
1,CCCC1OP(N)(=O)OCC1CC (stereo not given),inactive: 6.56%
2,CN(C)P(=O)(N(C)C)n1c(Nc2ccccc2)nnc1-c1ccccc1,inactive: -6.38%
3,O=P(Nc1nc2ccc(Cl)cc2s1)(c1ccccc1)c1ccccc1,inactive: 18.1%
4,CCOP(=O)(Nc1ccccc1)OCC,inactive: -15.4%
5,Cc1cc(SC(NC(=O)c2ccc(F)cc2)C(Cl)(Cl)Cl)ncn1 (stereo not given),inactive: -5.19%
6,CN(C(=O)Cc1ccc(Cl)c(Cl)c1)[C@H]1CCCC[C@@H]1N1CCCC1,inactive: 6.13%
7,Cc1ccc(NP(=O)(Oc2ccccc2F)Oc2ccccc2F)nc1,inactive: 0.745%
8,CCN(N=Nc1nonc1N)c1nonc1N,inactive: -6.11%
9,Nc1cccc2ccc([As](=O)(O)O)cc12,inactive: 8.7%
10,NC(=O)c1cc([N+](=O)[O-])cc([N+](=O)[O-])c1N,inactive: -12.9%
11,CN(C(=O)Cc1ccc(Cl)c(Cl)c1)[C@H]1CCCC[C@H]1N1CCCC1,inactive: -3.84%
12,Cc1ccc(N/C(=N/P(=O)(N2CCOCC2)N2CCOCC2)N2CCOCC2)cc1,inactive: -3.71%
13,COc1ccccc1OP(=O)(Nc1ccc(C)cn1)Oc1ccccc1OC,inactive: -5.42%
14,Cc1ccc(OP(=O)(Nc2nccs2)Oc2ccc(C)cc2)cc1,inactive: -10.3%
15,Clc1ccc(Cl)c(NC2=NCC(CBr)S2)c1 (stereo not given),inactive: 2.22%
16,CN1CCCC(OC(=O)C(c2ccccc2)c2ccccc2)C1 (stereo not given),inactive: -4.54%
17,CC(C)CC(=O)NC(Sc1ccc(Cl)cc1)C(Cl)(Cl)Cl (stereo not given),inactive: -18.3%
18,Nc1cc(N)c2nonc2c1[N+](=O)[O-],inactive: 16.5%
19,Oc1ccccc1CNc1ccccn1,inactive: -6.91%
20,O=C(NC(Sc1ccncn1)C(Cl)(Cl)Cl)c1ccccc1 (stereo not given),inactive: -13.2%
21,O=[N+]([O-])C1C(O)C(O)C([N+](=O)[O-])C(O)C1O (stereo not given),inactive: -8.15%
